Earlier results as cited in US20190335749A1, “Adjustable Release Pesticide Tablet Formulations” (priority 2018, published 2019).

Conditions: cited from earlier work

## O=[N+]([O-])c1ccc([O-])cc1C(F)(F)F.[K+] [TFM phenoxide salt]
  solubility in water: significantly more soluble
